The assay has as its target MtbDHFR (Mycobacterium tuberculosis (strain ATCC 25618 / H37Rv), UniProt P9WNX1). Description: M. tuberculosis DHFR enzyme inhibition. In kind it is biochemical.

With `CCc1nc(N)nc(N)c1C#CC(C)c1cc2c(c(-c3cncn3C)c1)OCO2` (stereo not shown) [Compound 54], the IC50 (in general, the concentration that inhibits the measured activity by half) is 326 nM.

Values taken from patent US10870625B2, “Zwitterionic propargyl-linked antifolates useful for treating bacterial infections” (THE UNIVERSITY OF CONNECTICUT, priority 2016, dated 2020).
